# Reference: patent US20130310347A1, “MULTI-MODALITY MOLECULAR IMAGING HIGH-THROUGHPUT ASSAY FOR IDENTIFYING HEAT SHOCK PROTEIN 90 (HSP90) INHIBITORS” (The Board of Trustees of the Leland Stanford Junior …, priority 2012, published 2013)
# Experiments:
# [1] = system: Hsp90(α/β)/p23 interactions; experiment: CP9 analogue evaluation in 293T(α/β)-FG cells, both isoforms stated jointly
# Procedure: To improve the efficacy of CP9 in disruption of Hsp90(α/β)/p23 interactions in living mice, a structure-activity relationship (SAR) study was performed using 62 structural analogues (10 μM) with different modifications on CP9, as shown in FIGS. 2A-2G, using the 293T(α/β)-FG stable cells. Their effects on Hsp90(α/β)/p23 interactions and cell proliferation were monitored by sequential RL (FIG. 11A) and FL imaging at 24 h. CP9, PU-H71 and 17-AAG were used as positive controls. The net effect on Hsp90(α/β)/p23 interactions was determined by normalizing RL to that of FL signals and to that of carrier control-treated cells (FIG. 11B). […]
# CP9 (0.3-10 μM), 17-AAG (10 μM) and PU-H71 (5 μM) were used as positive controls in triplicate wells. The efficacy of the analogues in disruption of Hsp90(α/β)/p23 and cell proliferation were monitored by RL imaging (2 h post upon addition of ENDUREN® at 30 μM final concentration) followed by FL imaging (10 mins post addition of D-Luc at 0.225 mg/ml final concentration) using a cooled CCD camera (1 min and 10 sec for RL and FL imaging, respectively). […] The effect of the CP9 analogues on degradation of Hsp90 client proteins in 293T cells were also monitored by western blotting as described above.
# [2] = system: 293T cells; experiment: Alamar Blue cell proliferation; details: 24 h
# Procedure: FIG. 6A is a series of graphs illustrating the effect of CP9 on cell proliferation determined by an Alamar Blue assay. The indicated cancer cell lines were treated with different concentrations of CP9 for 24 h prior to incubation with Alamar blue for 4 h. The Hsp90 inhibitors PU-H71 and 17AAG were used as positive controls. Emissions at 570 nm in CP9-treated cells were normalized to that of carrier control-treated cells. Results are expressed as normalized cell proliferation±S.E.M.
# FIG. 12A is a graph illustrating the effect of A17, CP9 and 17-AAG on proliferation of 293T cells. 293T cells were treated with different concentrations of inhibitors in triplicates for 24 h prior to determination of cell proliferation by Alamar Blue assay. Emission signals were normalized to that of carrier control treated cells and expressed as mean±S.E.M.
# CP9 had no effect on proliferation of normal MEFs. Since CP9 led to decrease in phosphorylated Akt (FIGS. 5A and 10A-10C), it was expected to inhibit glucose metabolism through relief of inhibition of glycogen synthase kinase […] (Nair & Olanow (2008) J. Biol. Chem. M707238200; Dandekar et al., (2007) J. Nucl. Med. 48: 602-607).
# [3] = logP value (partition coefficient); type: physicochemical
compound,measurement,setting,value
Cc1cc(NC(=O)CSc2nc(-c3ccco3)cc(C(F)(F)F)n2)no1,SAR: efficacy in disruption of Hsp90(α/β)/p23 interactions,"[1]; comparison of R1, R2, R3 substitutions",higher potency than for the parental compound
same,inhibition of Hsp90(α/β)/p23 interactions compared to CP9,[1]; time- and dose-response curves,more effective than CP9
same,"IC50 for growth inhibition, fold lower than that of CP9",[2],about 2 fold
same,logP value (partition coefficient),[3],2.8
